Experimental data: paper PMC5462532 (Structure(London, England:1993), 2017)

Target: T1, His-Ub, the ubiquitin moiety of the UbcH7∼Ub conjugate in the crystal (human, UniProt P0CG47, in part, C-terminus isopeptide-linked to K86 of UbcH7)
T1 construct: ubiquitin, human, with His tag (His-Ub); Written alone for the contacts of the Ub moiety with the UBA-L domain of a symmetry-related HHARI; it stood there joined to UbcH7(C86K); source: E. coli, purified (Ni2+ pulldown, SEC); in the crystal as part of the conjugate m10
Test: crystal structure; HHARI 90-557 with UbcH7(C86K)-His-Ub mixed 1:1, hanging drop, PEG 5000 MME, HEPES pH 7.0, Tacsimate; Zn-SAD, 3.24 Å
Conditions: both partners purified

binding result: binds
B1: HHARI (residues 90-557) (enzyme, human, UniProt Q9Y4X5 90-557, looked up)
chain: GPGHEQEEDYRYEVLTAEQILQHMVECIREVNEVIQNPATITRILLSHFNWDKEKLMERYFDGNLEKLFAECHVINPSKKSRTRQMNTRSSAQDMPCQICYLNYPNSYFTGLECGHKFCMQCWSEYLTTKIMEEGMGQTISCPAHGCDILVDDNTVMRLITDSKVKLKYQHLITNSFVECNRLLKWCPAPDCHHVVKVQYPDAKPVRCKCGRQFCFNCGENWHDPVKCKWLKKWIKKCDDDSETSNWIAANTKECPKCHVTIEKDGGCNHMVCRNQNCKAEFCWVCLGPWEPHGSAWYNCNRYNEDDAKAARDAQERSRAALQRYLFYCNRYMNHMQSLRFEHKLYAQVKQKMEEMQQHNMSWIEVQFLKKAVDVLCQCRATLMYTYVFAFYLKKNNQSIIFENNQADLENATEVLSGYLERDISQDSLQDIKQKVQDKYRYCESRRRVLLQHVHEGYEKDLWEYIED
notes: also called HHARI (in the structure sections); not shown: GST, N-terminal, cleaved
